Consider three compounds from patent US12004868B2, “Liposomal mitigation of drug-induced inhibition of the cardiac IKr channel” (Signpath Pharma, Inc., priority 2011, dated 2024).

Chains of the proteins cited; added tags and fusions are not shown. Lines headed by an entry give the natural chain unless they say otherwise; changes in a name come on top.
UniProt Q12809: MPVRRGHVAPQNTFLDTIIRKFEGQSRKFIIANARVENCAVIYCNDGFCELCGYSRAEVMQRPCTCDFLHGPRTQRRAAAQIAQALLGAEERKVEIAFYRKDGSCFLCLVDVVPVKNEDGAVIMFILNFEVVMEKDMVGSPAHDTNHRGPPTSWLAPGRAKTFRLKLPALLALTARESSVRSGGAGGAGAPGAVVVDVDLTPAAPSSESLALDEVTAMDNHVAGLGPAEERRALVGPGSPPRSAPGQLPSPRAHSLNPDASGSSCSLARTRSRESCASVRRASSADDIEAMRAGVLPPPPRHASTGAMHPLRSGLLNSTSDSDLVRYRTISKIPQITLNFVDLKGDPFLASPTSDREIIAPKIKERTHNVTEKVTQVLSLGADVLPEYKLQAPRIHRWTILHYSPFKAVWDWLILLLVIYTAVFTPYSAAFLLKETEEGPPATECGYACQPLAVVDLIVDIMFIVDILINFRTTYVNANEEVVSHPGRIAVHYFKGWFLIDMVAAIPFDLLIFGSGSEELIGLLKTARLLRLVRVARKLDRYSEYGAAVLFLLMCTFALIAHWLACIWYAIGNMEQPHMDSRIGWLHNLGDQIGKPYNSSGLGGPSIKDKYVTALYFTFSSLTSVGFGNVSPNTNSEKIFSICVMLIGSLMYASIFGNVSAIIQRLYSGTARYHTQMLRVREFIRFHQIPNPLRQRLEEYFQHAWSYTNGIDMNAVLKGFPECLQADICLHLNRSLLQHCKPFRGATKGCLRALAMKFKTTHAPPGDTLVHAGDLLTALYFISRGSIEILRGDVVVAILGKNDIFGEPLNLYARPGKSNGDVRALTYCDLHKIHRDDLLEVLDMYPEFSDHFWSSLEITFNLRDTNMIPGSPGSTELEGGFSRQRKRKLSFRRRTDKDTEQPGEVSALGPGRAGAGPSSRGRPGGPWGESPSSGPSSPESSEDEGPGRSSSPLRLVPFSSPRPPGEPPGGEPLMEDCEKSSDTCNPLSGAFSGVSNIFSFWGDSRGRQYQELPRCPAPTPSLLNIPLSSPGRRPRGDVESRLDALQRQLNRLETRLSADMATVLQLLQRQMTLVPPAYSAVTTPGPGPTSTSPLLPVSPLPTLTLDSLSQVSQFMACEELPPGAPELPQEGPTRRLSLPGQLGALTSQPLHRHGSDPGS

In one data set the target is hERG (Homo sapiens, UniProt Q12809). The conditions noted are these: cited from earlier work.
The conditions of data set [1]: dose related; cited from earlier work.
The next data set concerns the target IKr (Homo sapiens, UniProt Q12809). Conditions: read-out: IKr IC50 (Doherty et al); literature; cited from earlier work.
For a further data set, the target named is IKr channel (hERG) (Homo sapiens, UniProt Q12809).

Each structure is given as a SMILES string.

One may read the EC50 as the concentration that produces a half-maximal response. As for `CC(C)COCC(CN(Cc1ccccc1)c1ccccc1)N1CCCC1` (centres unmarked) [Bepridil], on hERG (read-out: hERG inhibitory EC50, literature), the EC50 is 550 nM.
Regarding `CN(CCOc1ccc(NS(C)(=O)=O)cc1)CCc1ccc(NS(C)(=O)=O)cc1` [Dofetilide], in data set [1], the “incidence of TdP” value is 0.3-10.5%. Also, the “hERG blocker potency (in words)” value on hERG was “high potency hERG blocker”.
Usually IC50 stands for the concentration that inhibits the measured activity by half. Regarding `Cc1cn(-c2cc(NC(=O)c3ccc(C)c(Nc4nccc(-c5cccnc5)n4)c3)cc(C(F)(F)F)c2)cn1` [Nilotinib], the 50% inhibitory concentration (IC50) on IKr is 700 nM. For the same compound, the “voltage dependency of the tail current inhibition (in words)” value at IKr channel (hERG) is “not voltage dependent”.
